PubChem BioAssay AID651780 (The Scripps Research Institute Molecular Screening Center, 2012)
This is a selection; strong and weak results do not stand in their true shares. Calls of active or inactive are those of the source. Cut-off read from the data, not from the text of the source: active = inhibition above about 22%; inactive = the rest.

Assay: calcium response inhibition in counter-screen line – cell-based, fluorescence, counter-screen for hTAAR1 antagonist project (AID 651780);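 note: CHO-Ga16 host cells stimulated with ATP at an EC80 level; 0% = agonist EC80 plus vehicle and 100% = vehicle without agonist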
Settings: counterscreen cell line, antagonist mode, at 3 µM, hits give high values
For O=c1[nH]c2ccccc2n1C1CCN(C(c2ccnc3ccccc23)c2nnnn2C2CCCCC2)CC1 (stereo not drawn), the inhibition was inactive: 17.3%. In the case of COc1cccc(C(c2nnnn2C2CCCC2)N2CCC(n3c(=O)[nH]c4ccccc43)CC2)c1OC (stereo not drawn), the inhibition is reported as inactive: 12.5%. With O=c1[nH]c2ccccc2n1C1CCN(C(c2cccs2)c2nnnn2C2CCCCC2)CC1 (stereo not drawn) the inhibition was inactive: 13%. For CCCCn1nnnc1C(c1ccccc1)N1CCC(n2c(=O)[nH]c3ccccc32)CC1 (stereo not drawn), the inhibition was active: 25.1%. In the case of O=c1[nH]c2ccccc2n1C1CCN(C(c2cccs2)c2nnnn2C2CCCC2)CC1 (stereo not drawn), the inhibition is reported as inactive: 17.5%. In the case of O=c1[nH]c2ccccc2n1C1CCN(C(c2ccccc2)c2nnnn2C2CCCC2)CC1 (stereo not drawn), the inhibition is reported as inactive: 20.6%. For CCCCn1nnnc1C(c1cc2ccccc2o1)N1CCC(n2c(=O)[nH]c3ccccc32)CC1 (stereo not drawn), the inhibition was inactive: 12.6%. In the case of O=c1[nH]c2ccccc2n1C1CCN(C(c2ccccc2)c2nnnn2C2CCCCC2)CC1 (stereo not drawn), the inhibition is reported as inactive: 18.5%.
